Only a part is listed here, and it is no random draw. Calls of active or inactive are those of the source.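 How the source made its calls: active means cell growth inhibition above the hit limit set in the earlier mutant JAK2 cell screen (cut at about 27% in these data); inactive means the rest.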
Experiment: growth loss in parental Ba/F3 cells – cell-based, murine pro-B, CellTiter-Glo luminescence, counter-screen for JAK2V617F inhibitor project (AID 1520);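 further: plate controls were DMSO-treated cells for no effect and JAK Inhibitor I control wells for full effect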
Settings: Ba/F3 parental viability, at 5.6 µM, hits give high values, cells kept alive by added IL-3

SMILES: CC(=O)NC(SC(=S)N(CC(C)C)CC(C)C)C(Cl)(Cl)Cl (stereo unspecified)
- inhibition: inactive: -4.33%
